{"source": "patent US5436254A", "about": "“Carbostyril derivatives” (Otsuka Pharmaceutical Company, Ltd., priority 1989, dated 1995)", "test_system": "increase of diastolic pressure caused by Arg-vasopressin", "assay": "Anti-vasopressor activity in vivo (pith rat, increase of diastolic pressure by Arg-vasopressin)", "parameters": "species or system male SD rat", "conditions": "test compound intravenous, 3 minutes before Arg-vasopressin (30 mU/kg) intravenous"}
{"smiles": "COc1ccc(C(=O)N2CCC(N3C(=O)CCc4ccccc43)CC2)cc1", "values": [{"measurement": "ED50 (dose required to reduce the increase of diastolic pressure caused by Arg-vasopressin to 50 % of its control value)", "value": 0.8, "unit": "mg/kg"}]}
{"smiles": "CCOc1ccc(C(=O)N2CCC(N3C(=O)CCc4ccccc43)CC2)cc1", "values": [{"measurement": "ED50 (dose required to reduce the increase of diastolic pressure caused by Arg-vasopressin to 50 % of its control value)", "value": 0.5, "unit": "mg/kg"}]}
{"smiles": "CC(=O)NCCCOc1ccc(C(=O)N2CCC(N3C(=O)CCc4ccccc43)CC2)cc1", "values": [{"measurement": "ED50 (dose required to reduce the increase of diastolic pressure caused by Arg-vasopressin to 50 % of its control value)", "value": 0.2, "unit": "mg/kg"}]}
{"smiles": "CC(=O)NCCCCCOc1ccc(C(=O)N2CCC(N3C(=O)CCc4ccccc43)CC2)cc1", "values": [{"measurement": "ED50 (dose required to reduce the increase of diastolic pressure caused by Arg-vasopressin to 50 % of its control value)", "value": 0.8, "unit": "mg/kg"}]}
{"smiles": "CN(C)c1ccc(C(=O)N2CCC(N3C(=O)CCc4ccccc43)CC2)cc1", "values": [{"measurement": "ED50 (dose required to reduce the increase of diastolic pressure caused by Arg-vasopressin to 50 % of its control value)", "value": 1.0, "unit": "mg/kg"}]}
{"smiles": "CC(=O)NCCCCOc1ccc(C(=O)N2CCC(N3C(=O)CCc4ccccc43)CC2)cc1", "values": [{"measurement": "ED50 (dose required to reduce the increase of diastolic pressure caused by Arg-vasopressin to 50 % of its control value)", "value": 0.3, "unit": "mg/kg"}]}
